The values below come from publication PMC10761686.

Assay [1] has as its target actin filaments (F-actin) of rabbit skeletal muscle actin with tropomyosin (TPM1), barbed ends capped by gelsolin (rabbit | rat) (UniProt P68135). The experiment in a line: pyrene-actin polymerization assay; inhibition of pointed-end polymerization with 0.2 uM TPM1; by the methods gelsolin-to-actin 1:100, F-actin seeds 0.6 uM with 1 uM G-actin (10% pyrene-actin) in F-buffer, varying TMOD1; Kd = TMOD1 concentration for 50% maximal capping activity, one-phase exponential decay fit of relative initial rates.

The target is the same in assay [2].
For assay [3] the target is unchanged. Description: pyrene-actin depolymerization assay; inhibition of pointed-end depolymerization with 0.2 uM TPM1; by the methods gelsolin-to-actin 1:100, pyrene-F-actin seeds diluted to 0.6 uM in F-buffer, varying TMOD1; Kd = TMOD1 concentration for 50% maximal capping activity, one-phase exponential decay fit of relative initial rates.

The term Kd denotes the equilibrium constant for the complex coming apart. A lower Kd goes with higher affinity.

“tropomodulin 1 (TMOD1) with the patient variant p.R189W, human, recombinant with N-terminal 6xHistidine-tag (from UniProt P28289-1 1-359) (natural protein)” had a dissociation constant (Kd) in assay [1] of 0.00988 µM. Also, in assay [2], the Supplementary Table 3: IC50 of inhibition of Lat A-induced actin pointed end depolymerization in the presence of TPM1, sedimentation assay, from actin band densities of the pellet is 0.023 µM and the Supplementary Table 3: IC50 of inhibition of Lat A-induced actin pointed end depolymerization in the presence of TPM1, sedimentation assay, from actin band densities of the supernatant came to 0.0351 µM. The dissociation constant (Kd) in assay [3] is 0.0794 µM.

Take “tropomodulin 1 (TMOD1), wild type, human, recombinant with N-terminal 6xHistidine-tag (from UniProt P28289-1 1-359) (natural protein)”: in assay [1], the Kd came to 0.00663 µM. Besides, in assay [2], the Supplementary Table 3: IC50 of inhibition of Lat A-induced actin pointed end depolymerization in the presence of TPM1, sedimentation assay, from actin band densities of the pellet was determined as 0.0098 µM and the Supplementary Table 3: IC50 of inhibition of Lat A-induced actin pointed end depolymerization in the presence of TPM1, sedimentation assay, from actin band densities of the supernatant came out at 0.0111 µM. This substance yielded a Kd in assay [3] of 0.0253 µM.
